How the values were obtained:
[1] = molecular target: HIV-1 reverse transcriptase (Human immunodeficiency virus type 1 group M subtype B, UniProt P04585); test: In vitro test resisting HIV reverse transcriptase
DHBV = test: Virus restraint in DHBV-infected duck; format: in vivo; conditions: oral

SMILES | IC50 [1] | inhibitory effect for DHBV-DNA level in blood serum of infected duck (DHBV; 50mg/kg group, P<0.05) | inhibitory effect for DHBV-DNA level in blood serum of infected duck (DHBV; 100mg/kg twice a day from 7th day after infection, in 10 days, P<0.05-0.01)
O=C(O)P(=O)(O)O [PFA] | 770 nM |  | 
CC(C)=CCC(OC(=O)C=C(C)C)C1=CC(=O)c2c(O)ccc(O)c2C1=O (stereo not drawn) |  | significant inhibitory effect | prominent
